{
  "source": "patent US10064797B2",
  "about": "“Topical formulations for UV protection” (TOPGENIX, INC., priority 2014, dated 2018)",
  "test": "UV absorption spectra of the compounds, avobenzone and their combinations",
  "format": "physicochemical",
  "settings": "compound alone",
  "description": "In both cases, the absorptivity of these two compounds were studied. In addition, photostability of these two compounds were also assessed by taking a second UV absorption spectra after exposing the compounds to UV. Photostability of sun screening compounds are of critical importance as a compound would be completely ineffective if they lose their UV absorptive qualities shortly after being exposed to solar radiation.\nAvobenzone is an example for a known chemical UV absorber that can be combined.",
  "data": [
    {"substance": "2-Methoxy-3-{(4-methoxyphenyl)imino} cyclohex-1-ene amino acetic acid", "values": [
      {"measurement": "wavelength of strongest (maximum) UV absorption", "value": 337, "unit": "nm"}
    ]}
  ]
}
